Assay [1] deals with full-length GFP-tagged TBC1D1 (human) (UniProt Q86TI0). The experiment in a line: co-IP; GFP-trap from lysates of lentivirally transduced C2C12 myotubes in precipitation buffer, western blot; some cells serum starved and treated with vehicle or AICAR (2 mM). A general note: A western blot detects proteins with antibodies after separation by electrophoresis.
Assay [2] deals with GFP-PTB1 + 2 S237A (human) (UniProt Q86TI0). The description is as above.

Amino acid sequences for entries named in this document (tags omitted). A change or cut given only in a name is not applied to a line headed by its entry. Residues count along the entry.
UniProt Q86TI0, 1-381 S237A: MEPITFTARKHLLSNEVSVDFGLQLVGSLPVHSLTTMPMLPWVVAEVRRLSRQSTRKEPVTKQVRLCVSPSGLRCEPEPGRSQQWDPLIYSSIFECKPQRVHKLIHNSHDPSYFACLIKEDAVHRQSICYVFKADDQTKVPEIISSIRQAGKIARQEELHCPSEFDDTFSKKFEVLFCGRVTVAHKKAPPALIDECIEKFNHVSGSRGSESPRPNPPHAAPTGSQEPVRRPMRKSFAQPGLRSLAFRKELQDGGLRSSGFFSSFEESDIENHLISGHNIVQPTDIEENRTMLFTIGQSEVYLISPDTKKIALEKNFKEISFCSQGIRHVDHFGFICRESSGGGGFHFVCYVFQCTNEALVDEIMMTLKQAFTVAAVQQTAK
UniProt Q5EG47: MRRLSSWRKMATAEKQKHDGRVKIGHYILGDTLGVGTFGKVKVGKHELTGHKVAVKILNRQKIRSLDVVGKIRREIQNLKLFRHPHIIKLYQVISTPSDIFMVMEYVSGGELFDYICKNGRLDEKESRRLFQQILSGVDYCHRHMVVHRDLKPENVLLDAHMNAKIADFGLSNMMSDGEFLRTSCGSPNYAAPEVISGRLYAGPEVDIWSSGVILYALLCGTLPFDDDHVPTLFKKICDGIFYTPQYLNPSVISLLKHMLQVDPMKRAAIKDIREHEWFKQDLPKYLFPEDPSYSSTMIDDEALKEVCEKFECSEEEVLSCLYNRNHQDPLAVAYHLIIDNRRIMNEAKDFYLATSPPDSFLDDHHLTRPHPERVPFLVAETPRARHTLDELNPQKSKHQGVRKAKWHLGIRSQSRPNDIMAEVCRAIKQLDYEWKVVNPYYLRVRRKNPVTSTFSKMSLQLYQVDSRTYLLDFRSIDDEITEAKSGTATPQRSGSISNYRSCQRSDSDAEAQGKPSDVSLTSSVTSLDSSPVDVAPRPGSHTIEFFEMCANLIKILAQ

Data on one substance can be found in publication PMC6156765.

“AMPK heterotrimers containing the α1 subunit (endogenous, C2C12 myotubes) (from UniProt Q5EG47 1-559; Q9R078 1-270; O54950 1-330) (complex)” had a fold increase in binding with AICAR over basal in assay [1] of 4 fold. Moreover, in assay [2], the percent inhibition of AMPK binding against GFP-PTB1 + 2 was 42%.
